Where two headings read alike, the source gives them in different places.
Experiments:
[1] = tested on: BaF3 (EGFR WT); assay: Cell proliferation IC50 assay (Cell Titer GLO), BaF3 WT cells; format: cell-based, mouse
[2] = tested on: A431; assay: Cell proliferation IC50 assay (Cell Titer GLO), A431 cells; format: cell-based; conditions: read-out: A431 IC50, Table 6, A431, 72 h
[3] = target: BaF3 (EGFR Del19/C797S) (Homo sapiens, UniProt P00533, C797S, cells depend on it, form not given); assay: Cell proliferation IC50 assay (Cell Titer GLO), BaF3 DC cells; format: cell-based, mouse
[4] = tested on: BaF3 (EGFR L858R/T790M/C797S); assay: Cell proliferation IC50 assay (Cell Titer GLO), BaF3 LTC cells; format: cell-based, mouse
[5] = target: BaF3 (EGFR L858R) (Homo sapiens, UniProt P00533, L858R, cells depend on it); assay: Cell proliferation IC50 assay (Cell Titer GLO), BaF3 L cells; format: cell-based, mouse; conditions: read-out: L IC50, Table 7, 72 h, tested form: HCl
[6] = target: human EGFR-LTC (Homo sapiens, UniProt P00533, C797S/L858R/T790M); assay: EGFR protein abundance assay (Western blotting), EGFR-LTC; conditions: Ba/F3 cells expressing human EGFR-LTC, 24 h, Western blot, tested form: HCl
[7] = target: BaF3 (EGFR Del19) (Homo sapiens, UniProt P00533, cells depend on it, form not given); assay: Cell proliferation IC50 assay (Cell Titer GLO), BaF3 D cells; format: cell-based, mouse; conditions: read-out: D IC50, Table 7, 72 h, tested form: HCl
[8] = target: BaF3 (EGFR L858R/C797S) (Homo sapiens, UniProt P00533, C797S/L858R, cells depend on it); assay: Cell proliferation IC50 assay (Cell Titer GLO), BaF3 LC cells; format: cell-based, mouse; conditions: read-out: LC IC50, Table 7, 72 h, tested form: HCl
[9] = tested on: DT; assay: Cell proliferation IC50 assay (Cell Titer GLO), DT cells; conditions: read-out: DT IC50; Table 7; DT cells (BaF3 with EGFR mutant), 72 h; tested form: HCl
[10] = tested on: human EGFR-DTC; assay: EGFR protein abundance assay (Western blotting), EGFR-DTC; conditions: Ba/F3 cells expressing human EGFR-DTC, 24 h, Western blot, tested form: HCl
[11] = tested on: LT; assay: Cell proliferation IC50 assay (Cell Titer GLO), LT cells; conditions: read-out: LT IC50; Table 7; LT cells (BaF3 with EGFR mutant), 72 h; tested form: HCl
[12] = tested on: BaF3 (EGFR Del19/T790M/C797S); assay: Cell proliferation IC50 assay (Cell Titer GLO), BaF3 DTC cells; format: cell-based, mouse; conditions: read-out: DTC IC50, Table 6, 72 h, tested form: HCl
[13] = tested on: human EGFR-DC; assay: EGFR protein abundance assay (Western blotting), EGFR-DC; conditions: Ba/F3 cells expressing human EGFR-DC, 24 h, Western blot, tested form: HCl
[14] = read-out: WT IC50, Table 6, 10 ng/ml EGF, 72 h, tested form: HCl
[15] = read-out: DC IC50, Table 6, 72 h, tested form: HCl
[16] = read-out: LTC IC50, Table 6, 72 h, tested form: HCl
[17] = read-out: WT IC50, Table 6, 10 ng/ml EGF, 72 h
[18] = read-out: DC IC50, Table 6, 72 h
[19] = read-out: LTC IC50, Table 6, 72 h

Sequences of proteins named here, by UniProt entry; tags and fusion partners are left off. A line that says so, or that is headed by a name, gives the form on record, which may keep a tag or linker. Residues count along the entry.
UniProt P00533, with tags, fused parts or gaps C797S/DEL746-750: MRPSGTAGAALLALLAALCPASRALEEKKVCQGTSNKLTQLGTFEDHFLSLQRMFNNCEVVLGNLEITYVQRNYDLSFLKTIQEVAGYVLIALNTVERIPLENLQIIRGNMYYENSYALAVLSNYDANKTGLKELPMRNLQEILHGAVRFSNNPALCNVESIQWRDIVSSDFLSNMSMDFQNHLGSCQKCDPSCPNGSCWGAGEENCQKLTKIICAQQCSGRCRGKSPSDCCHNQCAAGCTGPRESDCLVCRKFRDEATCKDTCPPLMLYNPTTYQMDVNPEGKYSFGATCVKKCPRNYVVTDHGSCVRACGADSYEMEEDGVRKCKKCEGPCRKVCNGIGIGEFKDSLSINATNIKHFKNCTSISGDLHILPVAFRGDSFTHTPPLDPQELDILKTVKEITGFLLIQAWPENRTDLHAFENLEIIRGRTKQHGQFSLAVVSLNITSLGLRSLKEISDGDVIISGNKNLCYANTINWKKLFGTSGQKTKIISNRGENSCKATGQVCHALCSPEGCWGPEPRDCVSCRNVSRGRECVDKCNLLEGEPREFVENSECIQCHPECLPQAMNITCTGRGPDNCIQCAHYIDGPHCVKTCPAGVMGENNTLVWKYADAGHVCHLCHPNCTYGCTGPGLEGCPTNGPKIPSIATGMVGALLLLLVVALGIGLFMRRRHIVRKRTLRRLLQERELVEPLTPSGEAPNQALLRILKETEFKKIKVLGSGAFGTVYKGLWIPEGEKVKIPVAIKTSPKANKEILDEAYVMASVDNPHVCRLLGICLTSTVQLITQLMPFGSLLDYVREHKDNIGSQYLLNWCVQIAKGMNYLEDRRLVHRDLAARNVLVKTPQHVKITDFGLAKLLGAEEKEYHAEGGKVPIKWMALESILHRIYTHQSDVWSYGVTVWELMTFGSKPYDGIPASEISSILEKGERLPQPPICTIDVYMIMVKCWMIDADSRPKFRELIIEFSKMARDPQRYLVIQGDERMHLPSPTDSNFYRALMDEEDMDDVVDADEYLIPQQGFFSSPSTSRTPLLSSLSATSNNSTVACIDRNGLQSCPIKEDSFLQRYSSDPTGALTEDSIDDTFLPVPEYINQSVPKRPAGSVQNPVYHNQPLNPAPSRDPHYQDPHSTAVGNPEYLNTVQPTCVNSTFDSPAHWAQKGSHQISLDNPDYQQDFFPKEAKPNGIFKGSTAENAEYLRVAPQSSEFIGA
UniProt P00533, 25-1210 T790M/C797S/L858R limits assumed: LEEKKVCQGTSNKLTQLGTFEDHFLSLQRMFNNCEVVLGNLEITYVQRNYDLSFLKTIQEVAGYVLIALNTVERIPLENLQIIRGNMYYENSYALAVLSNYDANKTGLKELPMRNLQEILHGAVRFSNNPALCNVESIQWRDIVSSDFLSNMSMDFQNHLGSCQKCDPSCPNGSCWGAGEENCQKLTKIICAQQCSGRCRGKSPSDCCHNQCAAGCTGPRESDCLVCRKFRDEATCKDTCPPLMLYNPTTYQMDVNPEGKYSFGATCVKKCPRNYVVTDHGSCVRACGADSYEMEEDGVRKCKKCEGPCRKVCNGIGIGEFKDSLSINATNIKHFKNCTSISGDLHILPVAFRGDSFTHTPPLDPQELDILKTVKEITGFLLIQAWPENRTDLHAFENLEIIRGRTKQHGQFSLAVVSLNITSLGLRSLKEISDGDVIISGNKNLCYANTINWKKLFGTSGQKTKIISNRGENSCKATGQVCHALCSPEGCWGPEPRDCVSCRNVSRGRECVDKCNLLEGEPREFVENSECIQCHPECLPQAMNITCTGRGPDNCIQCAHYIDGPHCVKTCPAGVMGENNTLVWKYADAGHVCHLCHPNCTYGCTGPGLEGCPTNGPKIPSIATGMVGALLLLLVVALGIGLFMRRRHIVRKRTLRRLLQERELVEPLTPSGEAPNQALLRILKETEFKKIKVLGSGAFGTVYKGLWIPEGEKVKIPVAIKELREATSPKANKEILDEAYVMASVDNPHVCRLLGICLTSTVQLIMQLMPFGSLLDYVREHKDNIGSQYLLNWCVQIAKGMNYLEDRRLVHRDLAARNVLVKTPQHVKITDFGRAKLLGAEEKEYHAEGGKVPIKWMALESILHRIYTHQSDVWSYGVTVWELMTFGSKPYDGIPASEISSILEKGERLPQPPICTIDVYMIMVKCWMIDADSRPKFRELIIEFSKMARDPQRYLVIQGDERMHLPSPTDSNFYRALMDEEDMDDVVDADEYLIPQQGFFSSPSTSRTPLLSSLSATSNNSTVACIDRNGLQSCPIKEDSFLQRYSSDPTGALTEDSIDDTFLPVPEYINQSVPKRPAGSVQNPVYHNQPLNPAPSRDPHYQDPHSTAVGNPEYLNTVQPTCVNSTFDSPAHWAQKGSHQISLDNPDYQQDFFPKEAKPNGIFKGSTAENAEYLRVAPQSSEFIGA
UniProt P00533, whole entry L858R: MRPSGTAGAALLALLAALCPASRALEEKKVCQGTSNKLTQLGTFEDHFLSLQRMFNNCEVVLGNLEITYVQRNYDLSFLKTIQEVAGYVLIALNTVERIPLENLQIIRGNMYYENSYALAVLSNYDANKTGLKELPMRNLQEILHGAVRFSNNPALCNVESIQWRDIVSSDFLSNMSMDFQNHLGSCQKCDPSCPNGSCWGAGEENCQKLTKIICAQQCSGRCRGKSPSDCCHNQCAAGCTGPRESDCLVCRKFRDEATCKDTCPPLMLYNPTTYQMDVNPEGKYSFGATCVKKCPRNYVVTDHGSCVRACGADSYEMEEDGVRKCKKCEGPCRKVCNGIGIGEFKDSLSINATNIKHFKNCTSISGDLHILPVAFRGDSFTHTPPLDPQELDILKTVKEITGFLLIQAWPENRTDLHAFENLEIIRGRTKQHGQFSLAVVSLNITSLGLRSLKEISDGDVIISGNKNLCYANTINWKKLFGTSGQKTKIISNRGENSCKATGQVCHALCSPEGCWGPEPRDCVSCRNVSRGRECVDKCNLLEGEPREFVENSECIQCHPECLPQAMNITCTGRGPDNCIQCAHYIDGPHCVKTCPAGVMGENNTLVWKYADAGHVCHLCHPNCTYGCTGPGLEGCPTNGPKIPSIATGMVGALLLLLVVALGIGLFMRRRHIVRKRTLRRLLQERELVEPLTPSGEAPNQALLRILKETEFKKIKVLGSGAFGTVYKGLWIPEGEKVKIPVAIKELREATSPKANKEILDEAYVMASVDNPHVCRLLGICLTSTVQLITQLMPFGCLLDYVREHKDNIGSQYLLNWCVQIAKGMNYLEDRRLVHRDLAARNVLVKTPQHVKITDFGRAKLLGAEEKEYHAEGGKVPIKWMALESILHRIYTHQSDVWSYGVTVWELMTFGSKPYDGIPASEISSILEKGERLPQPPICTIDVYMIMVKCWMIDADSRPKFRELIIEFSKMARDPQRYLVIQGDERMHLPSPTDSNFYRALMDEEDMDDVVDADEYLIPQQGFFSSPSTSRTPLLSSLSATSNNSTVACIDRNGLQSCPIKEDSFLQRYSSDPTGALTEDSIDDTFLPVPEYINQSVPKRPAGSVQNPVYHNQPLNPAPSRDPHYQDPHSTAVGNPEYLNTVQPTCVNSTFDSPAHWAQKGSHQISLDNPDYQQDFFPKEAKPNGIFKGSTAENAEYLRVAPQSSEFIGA
UniProt P00533, whole entry C797S/L858R: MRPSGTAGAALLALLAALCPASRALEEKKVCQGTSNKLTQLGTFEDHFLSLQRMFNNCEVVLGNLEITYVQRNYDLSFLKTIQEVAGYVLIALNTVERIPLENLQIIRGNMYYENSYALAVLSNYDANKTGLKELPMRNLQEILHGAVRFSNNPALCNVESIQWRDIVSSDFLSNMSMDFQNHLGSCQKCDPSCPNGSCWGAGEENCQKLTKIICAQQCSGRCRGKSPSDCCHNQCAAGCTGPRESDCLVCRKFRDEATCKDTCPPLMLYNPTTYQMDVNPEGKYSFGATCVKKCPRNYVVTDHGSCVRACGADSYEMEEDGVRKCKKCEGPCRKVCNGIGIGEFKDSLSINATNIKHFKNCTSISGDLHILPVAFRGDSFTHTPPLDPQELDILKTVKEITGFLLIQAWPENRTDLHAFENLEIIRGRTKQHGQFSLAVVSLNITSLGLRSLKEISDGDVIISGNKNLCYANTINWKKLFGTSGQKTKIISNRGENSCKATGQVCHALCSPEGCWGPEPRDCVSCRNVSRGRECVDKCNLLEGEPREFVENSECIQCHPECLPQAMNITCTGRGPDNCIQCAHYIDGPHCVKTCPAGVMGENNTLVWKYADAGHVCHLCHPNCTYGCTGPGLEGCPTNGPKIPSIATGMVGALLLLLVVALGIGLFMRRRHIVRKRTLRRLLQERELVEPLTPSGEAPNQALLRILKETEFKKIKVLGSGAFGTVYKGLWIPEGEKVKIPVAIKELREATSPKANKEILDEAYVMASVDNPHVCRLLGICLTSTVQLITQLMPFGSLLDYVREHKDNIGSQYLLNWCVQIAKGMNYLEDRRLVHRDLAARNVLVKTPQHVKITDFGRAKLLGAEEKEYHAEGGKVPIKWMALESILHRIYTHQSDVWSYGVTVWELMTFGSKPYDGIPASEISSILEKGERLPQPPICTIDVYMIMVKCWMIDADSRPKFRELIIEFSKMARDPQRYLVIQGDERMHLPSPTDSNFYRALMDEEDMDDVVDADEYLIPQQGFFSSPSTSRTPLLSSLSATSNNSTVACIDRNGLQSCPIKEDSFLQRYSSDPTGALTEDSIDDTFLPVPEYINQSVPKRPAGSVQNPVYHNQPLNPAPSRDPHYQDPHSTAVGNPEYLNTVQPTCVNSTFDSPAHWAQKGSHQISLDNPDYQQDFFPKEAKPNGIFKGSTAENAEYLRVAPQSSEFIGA
UniProt P00533, with tags, fused parts or gaps DEL746-750: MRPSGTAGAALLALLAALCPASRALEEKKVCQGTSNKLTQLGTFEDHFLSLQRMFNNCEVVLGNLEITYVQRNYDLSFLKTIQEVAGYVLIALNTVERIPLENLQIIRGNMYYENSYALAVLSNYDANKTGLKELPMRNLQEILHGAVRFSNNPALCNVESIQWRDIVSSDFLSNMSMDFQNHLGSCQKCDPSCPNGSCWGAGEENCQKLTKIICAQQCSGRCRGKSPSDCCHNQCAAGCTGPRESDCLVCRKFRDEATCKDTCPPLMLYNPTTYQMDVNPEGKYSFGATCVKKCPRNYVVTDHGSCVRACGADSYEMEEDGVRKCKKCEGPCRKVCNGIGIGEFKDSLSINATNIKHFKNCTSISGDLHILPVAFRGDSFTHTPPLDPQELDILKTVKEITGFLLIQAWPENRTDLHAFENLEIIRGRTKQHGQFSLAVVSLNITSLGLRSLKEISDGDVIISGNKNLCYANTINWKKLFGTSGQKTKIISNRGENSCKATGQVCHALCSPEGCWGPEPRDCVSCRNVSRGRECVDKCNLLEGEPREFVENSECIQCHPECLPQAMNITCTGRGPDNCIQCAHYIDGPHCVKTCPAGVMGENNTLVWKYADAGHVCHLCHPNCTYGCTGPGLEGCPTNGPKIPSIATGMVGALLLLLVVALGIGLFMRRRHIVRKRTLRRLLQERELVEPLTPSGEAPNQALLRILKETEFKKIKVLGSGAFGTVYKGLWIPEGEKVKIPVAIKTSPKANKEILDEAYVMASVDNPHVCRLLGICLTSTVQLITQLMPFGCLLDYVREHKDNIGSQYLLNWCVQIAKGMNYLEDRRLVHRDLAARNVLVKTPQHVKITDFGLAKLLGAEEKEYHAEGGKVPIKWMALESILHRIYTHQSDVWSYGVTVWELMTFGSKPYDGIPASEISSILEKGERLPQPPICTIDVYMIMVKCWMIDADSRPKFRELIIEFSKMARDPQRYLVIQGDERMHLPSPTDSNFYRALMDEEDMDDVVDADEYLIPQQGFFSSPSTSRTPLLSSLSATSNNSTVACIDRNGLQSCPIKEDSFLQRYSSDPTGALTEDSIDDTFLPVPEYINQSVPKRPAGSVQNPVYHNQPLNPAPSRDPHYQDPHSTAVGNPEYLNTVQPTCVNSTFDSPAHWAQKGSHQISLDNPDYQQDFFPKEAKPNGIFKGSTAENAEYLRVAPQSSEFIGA

| IC50 [1, 14] | IC50 ([2]; tested form: HCl) | GI50 [3, 15] | IC50 [4, 16] | IC50 [12] | Compound | further results |
| --- | --- | --- | --- | --- | --- | --- |
| 506 nM | 1220 nM | 1.1 nM | > 4000 nM |  | CCc1cc(Nc2ncc(-c3cnn(C)c3)c(Nc3ccccc3P(C)(C)=O)n2)c(OC)cc1N1CCC(N2CCN(CCOc3ccc4c(c3)CN(C3CCC(=O)NC3=O)C4=O)CC2)CC1 (stereo not drawn) |  |
|  |  |  |  |  | CCc1cc(Nc2ncc(-n3cc(C)nn3)c(Nc3ccccc3P(C)(C)=O)n2)c(OC)cc1N1CCC(N2CCN(CCOc3ccc4c(c3)CN(C3CCC(=O)NC3=O)C4=O)CC2)CC1 (stereo not drawn) | IC50 [1, 17]: 829 nM; IC50 [2]: > 4000 nM; GI50 [3, 18]: 0.9 nM; IC50 [4, 19]: > 4000 nM |
|  |  |  |  |  | CCc1cc(Nc2ncc(Cl)c(Nc3ccccc3P(C)(C)=O)n2)c(OC)cc1N1CCC(N2CCN(CCCCOc3cc(F)cc4c3CN(C3CCC(=O)NC3=O)C4=O)CC2)CC1 (stereo not drawn) | IC50 ([1]; read-out: WT IC50, Table 6, 10 ng/ml EGF, 72 h, tested form: formate): 345 nM; IC50 ([2]; tested form: formate): 1060 nM; GI50 ([3]; read-out: DC IC50, Table 6, 72 h, tested form: formate): 3.3 nM; IC50 ([4]; read-out: LTC IC50, Table 6, 72 h, tested form: formate): 25.5 nM |
|  |  |  |  |  | CCc1cc(Nc2ncc(-c3cnn(C)c3)c(Nc3ccccc3P(C)(C)=O)n2)c(OC)cc1N1CCN(C2CCN(C(C)(C)COc3cc4c(cc3F)C(=O)N(C3CCC(=O)NC3=O)C4)CC2)CC1 (stereo not drawn) | IC50 [1, 17]: 1360 nM; IC50 [2]: > 4000 nM; GI50 [3, 18]: 8.6 nM; IC50 [4, 19]: > 4000 nM |
| 1080 nM | 1330 nM | 6 nM | 41 nM | 3.87 nM | CCc1cc(Nc2ncc(Cl)c(Nc3ccccc3P(C)(C)=O)n2)c(OC)cc1N1CCC(N2CCC3(CC(Oc4cccc5c4CN(C4CCC(=O)NC4=O)C5=O)C3)C2)CC1 (single isomer, unassigned) [E182] |  |
| 1010 nM | 1540 nM | 1 nM | 9.6 nM | 3.16 nM | CCc1cc(Nc2ncc(Cl)c(Nc3ccccc3P(C)(C)=O)n2)c(OC)cc1N1CCC(N2CCC3(CC(Oc4cccc5c4CN(C4CCC(=O)NC4=O)C5=O)C3)C2)CC1 (single isomer, unassigned) [E183] |  |
| 1110 nM | 1130 nM | 0.7 nM | 6.3 nM | 1.76 nM | CCc1cc(Nc2ncc(Cl)c(Nc3ccccc3P(C)(C)=O)n2)c(OC)cc1N1CCC(N2CCC3(CC(Oc4cccc5c4CN(C4CCC(=O)NC4=O)C5=O)C3)C2)CC1 (single isomer, unassigned) [E181] |  |
| 2650 nM | 1090 nM | 3.4 nM | 110 nM |  | CCc1cc(Nc2ncc(Cl)c(Nc3ccccc3P(C)(C)=O)n2)c(OC)cc1N1CCC(N2CC[C@]3(C2)C[C@H](Oc2cccc4c2CN(C2CCC(=O)NC2=O)C4=O)C3)CC1 (stereo partly drawn) |  |
| 1030 nM | 1780 nM | 20.5 nM | 128 nM |  | CCc1cc(Nc2ncc(Cl)c(Nc3ccccc3P(C)(C)=O)n2)c(OC)cc1N1CCC(N2CCC3(CC(Oc4cccc5c4CN(C4CCC(=O)NC4=O)C5=O)C3)C2)CC1 (single isomer, unassigned) [E184] |  |
| > 4000 nM | 3770 nM | 10.1 nM | 53.1 nM |  | CCOc1cc(N2CCC(N3CCN(CCC#Cc4cccc5c4CN(C4CCC(=O)NC4=O)C5=O)CC3)CC2)c(CC)cc1Nc1ncc(Cl)c(Nc2ccccc2P(C)(C)=O)n1 (stereo not drawn) |  |
| 1020 nM | 1020 nM | 10 nM | 22.8 nM | 15.5 nM | CCc1cc(Nc2ncc(Cl)c(Nc3ccccc3P(C)(C)=O)n2)c(OC)cc1N1CCC(N2CCN(CCCCOc3ccc4c(c3)CN(C3CCC(=O)NC3=O)C4=O)CC2)CC1 (stereo not drawn) |  |

| Compound | IC50 [1, 14] | IC50 ([2]; tested form: HCl) | GI50 [3, 15] | IC50 [4, 16] | IC50 [12] | further results |
| --- | --- | --- | --- | --- | --- | --- |
| CCc1cc(Nc2ncc(Cl)c(Nc3ccccc3P(C)(C)=O)n2)c(OC)cc1N1CCC(N2CC[C@]3(C2)C[C@@H](Oc2cccc4c2CN(C2CCC(=O)NC2=O)C4=O)C3)CC1 (stereo partly drawn) | 1470 nM | 1690 nM |  | 28.2 nM | 3.98 nM | GI50 [5]: 1.4 nM; EGFR-LTC Dmax [6]: 95%; DC50 ([6]; read-out: EGFR-LTC DC50): 2.6 nM; GI50 [7]: 0.3 nM; GI50 [8]: 3.6 nM; IC50 [9]: 3 nM; EGFR-DTC Dmax [10]: 97%; DC50 ([10]; read-out: EGFR-DTC DC50): 1.06 nM; IC50 [11]: 2.8 nM; GI50 ([3]; read-out: DC IC50, Table 7, 72 h, tested form: HCl): 0.4 nM; EGFR-DC Dmax [13]: 97%; DC50 ([13]; read-out: EGFR-DC DC50): 1.12 nM |
| CCc1cc(Nc2ncc(Cl)c(Nc3ccccc3P(C)(C)=O)n2)c(OC)cc1N1CCC(N2CCN(CCOc3ccc4c(c3)CN(C3CCC(=O)NC3=O)C4=O)CC2)CC1 (stereo not drawn) | 2500 nM | 1100 nM | 13.7 nM | 70.6 nM |  |  |
| CCc1cc(Nc2ncc(Cl)c(Nc3ccccc3P(C)(C)=O)n2)c(OC)cc1N1CCC(N2CCN(CCCCCc3ccc4c(c3)c(N3CCC(=O)NC3=O)nn4C)CC2)CC1 | 3980 nM | 2090 nM | 122 nM | 921 nM |  |  |

From patent US20240408216A1, “PROTEIN INHIBITOR OR DEGRADING AGENT, PHARMACEUTICAL COMPOSITION CONTAINING SAME AND PHARMACEUTICAL USE” (JING MEDICINE TECHNOLOGY (SHANGHAI) LTD., priority 2021, published 2024)
